{"sequences": {"note": "Chains of the proteins cited; added tags and fusions are not shown. Lines headed by an entry give the natural chain unless they say otherwise; changes in a name come on top.", "UniProt P06276, whole entry, looked up": "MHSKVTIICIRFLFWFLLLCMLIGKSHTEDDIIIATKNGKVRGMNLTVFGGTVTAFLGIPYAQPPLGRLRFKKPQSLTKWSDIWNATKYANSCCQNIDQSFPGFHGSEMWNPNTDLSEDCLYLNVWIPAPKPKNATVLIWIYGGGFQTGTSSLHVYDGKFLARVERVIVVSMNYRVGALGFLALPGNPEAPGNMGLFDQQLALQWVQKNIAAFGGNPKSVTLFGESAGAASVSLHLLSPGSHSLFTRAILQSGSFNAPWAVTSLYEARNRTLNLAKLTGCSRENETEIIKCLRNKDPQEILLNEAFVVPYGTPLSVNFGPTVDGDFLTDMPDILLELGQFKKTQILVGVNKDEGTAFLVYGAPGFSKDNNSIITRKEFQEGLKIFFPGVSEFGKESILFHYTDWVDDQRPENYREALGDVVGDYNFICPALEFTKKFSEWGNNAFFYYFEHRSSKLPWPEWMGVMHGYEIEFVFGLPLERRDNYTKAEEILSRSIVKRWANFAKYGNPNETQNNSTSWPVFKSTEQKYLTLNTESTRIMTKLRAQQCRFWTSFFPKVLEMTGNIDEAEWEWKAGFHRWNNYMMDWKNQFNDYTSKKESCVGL", "UniProt P22303": "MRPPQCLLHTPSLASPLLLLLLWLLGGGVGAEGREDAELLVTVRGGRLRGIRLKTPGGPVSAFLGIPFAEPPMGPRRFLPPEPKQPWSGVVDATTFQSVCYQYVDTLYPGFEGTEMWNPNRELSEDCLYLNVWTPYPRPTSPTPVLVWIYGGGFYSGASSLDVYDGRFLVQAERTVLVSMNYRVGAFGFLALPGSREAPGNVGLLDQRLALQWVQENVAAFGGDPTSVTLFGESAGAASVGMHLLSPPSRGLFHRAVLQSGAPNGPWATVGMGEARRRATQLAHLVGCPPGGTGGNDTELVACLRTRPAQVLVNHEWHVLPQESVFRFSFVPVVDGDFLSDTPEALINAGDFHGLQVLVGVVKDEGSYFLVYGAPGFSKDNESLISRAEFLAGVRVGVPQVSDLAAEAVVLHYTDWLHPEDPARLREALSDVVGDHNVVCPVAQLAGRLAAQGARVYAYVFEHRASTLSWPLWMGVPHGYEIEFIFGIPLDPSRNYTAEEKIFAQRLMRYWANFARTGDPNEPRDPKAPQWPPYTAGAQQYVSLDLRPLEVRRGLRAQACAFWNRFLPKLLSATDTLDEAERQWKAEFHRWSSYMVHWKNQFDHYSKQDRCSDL"}, "source": "ChEMBL document CHEMBL5214927", "about": "“Recent advance on carbamate-based cholinesterase inhibitors as potential multifunctional agents against Alzheimer's disease” (Eur J Med Chem, 2022)", "target": "Cholinesterases; ACHE & BCHE (Homo sapiens) (UniProt P06276+P22303)", "experiment": "Selectivity index, ratio of IC50 for AChE (unknown origin) to BChE (unknown origin)", "format": "protein assay", "data": [{"smiles": "Cc1ccccc1NC(=O)Oc1ccc2c(c1)[C@]1(C)CCO[C@@H]1O2", "values": [{"measurement": "Ratio IC50", "result": "> 1300"}]}]}
